These results are taken from PubChem BioAssay AID1671190 (National Center for Advancing Translational Sciences (NCATS), 2021).

Amino acid sequences for entries named in this document (tags omitted). A change or cut given only in a name is not applied to a line headed by its entry.
UniProt P18054: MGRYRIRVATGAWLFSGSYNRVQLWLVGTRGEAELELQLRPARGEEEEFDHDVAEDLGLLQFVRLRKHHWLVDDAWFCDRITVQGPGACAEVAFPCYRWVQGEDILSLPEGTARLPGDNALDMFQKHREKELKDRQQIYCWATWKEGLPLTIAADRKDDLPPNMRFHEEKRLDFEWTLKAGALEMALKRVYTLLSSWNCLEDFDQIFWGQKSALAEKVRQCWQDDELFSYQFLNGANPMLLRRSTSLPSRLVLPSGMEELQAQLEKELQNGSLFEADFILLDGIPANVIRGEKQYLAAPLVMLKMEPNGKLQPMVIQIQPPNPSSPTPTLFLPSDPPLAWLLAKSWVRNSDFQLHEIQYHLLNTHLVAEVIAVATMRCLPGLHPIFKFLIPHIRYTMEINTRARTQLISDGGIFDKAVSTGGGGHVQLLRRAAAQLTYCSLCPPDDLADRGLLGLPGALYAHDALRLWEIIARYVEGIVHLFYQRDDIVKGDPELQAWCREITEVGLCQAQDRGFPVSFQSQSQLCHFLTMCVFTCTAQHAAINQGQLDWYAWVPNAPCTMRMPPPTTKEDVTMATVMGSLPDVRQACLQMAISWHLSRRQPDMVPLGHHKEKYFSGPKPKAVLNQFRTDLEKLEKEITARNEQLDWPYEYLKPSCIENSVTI

The list shows a part of the results, in another mix than the full data. Results filed as inconclusive are left out. A call without a number means that no potency is given here. Activity calls are given as the source filed them. Calls follow the shape of the dose curve; as a rule, active = well fitted inhibition curve with a large enough effect; inconclusive = small, poorly fitted or top-dose-only effect, or another doubt; inactive = no such curve, though single readings can be large or run the other way.
Potency is read from the fitted curve at half-maximal effect.

The target in the assay is Polyunsaturated fatty acid lipoxygenase ALOX12 (Homo sapiens) (UniProt P18054). The assay is described as follows: Primary qHTS assay for inhibitors of human arachidonate 12S-lipoxygenase (ALOX12): Round 2. The settings on record: purified 12hLO, xylenol orange hydroperoxide absorbance; series mostly up to 108 µM. The source says: Assay Provider: Theodore R. Holman Ph.D. University of California, Santa Cruz, California Human lipoxygenase 12hLO is a member of the closely related lipoxygenase family of enzymes which catalyze the site-specific oxidation of arachidonic acid to various hormone precursor molecules and as such is a candidate for drug development in a variety of disease areas, such as cancer and inflammation. Inhibition of 12hLO activity was screened by utilizing arachidonic acid as a substrate. The extent of hydroperoxide product formation was measured by a secondary chromogenic reaction in which xylenol orange (XO, Sigma-Aldrich, cat. number 39,818-7) reacts with the ferric ions produced from the reaction between the hydroperoxide and ferrous ions. The Fe (III)-XO complex is characterized with red-shifted absorbance at 560 nm. A purified preparation of human 12hLO was supplied by Dr. Holman laboratory, University of California, Santa Cruz.
PROTOCOL TABLE SEQUENCE No. (e.g., 1, 2, 3, etc.); […] (e.g., Cells, Incubation, Reagent, etc.); VALUE; DESCRIPTION 1; Enzyme; 3 uL; 150 nM 12hLO enzyme solution dispensed in 1536-well Greiner black, clear bottom plates. 2; Compound; 23 nL; compounds and controls were added. 3; Incubate; 15 min; room temperature. 4; Substrate; 1 uL; 40 uM arachidonic acid (final concentration). 5; Incubate; 30 min; room temperature. 6; Reagent; 4 uL; Fe-XO solution was added to each well. 7; Incubation; 30 min; room temperature 8; Detector; absorbance; Read 1 at 405 nm absorbance using ViewLux (Perkin-Elmer) CCD imager. 9; Detector; absorbance; Read 2 at 573 nm absorbance using ViewLux (Perkin-Elmer) CCD imager. NOTES (numbers refer to sequence above) 1; 150 nM 12hLO (final concentration) in buffer solution (25 mM Hepes, 0.01% Triton X-100, pH 7.0) was dispensed in columns 1, 2, 5-48. Column 1 is neutral (100% activity). Buffer only was dispensed in columns 3 and 4 as no enzyme negative controls. The plates were covered with metal lids with gas-exchange holes. 2; Compounds were pin transferred via a Kalypsys Pin Tool (Wako USA) in column 5-48. Control compound was transferred in column 2, titration of nordihydroguaiaretic acid (NDGA, Sigma-Aldrich, N5023) with top concentration of 20 mM in DMSO then 1:3 dilution in duplicate. Dilution factor of 23 nL into 4 uL final assay volume. 3; Covered assay plates were incubated for 15 min at room temperature. 4; Substrate was added to start the reaction; 40 uM arachidonic acid (Sigma-Aldrich, St. Louis, MO) was dispensed throughout the plate. 6; Chromogenic detection reagent solution (divalent iron/xylenol orange, Fe-XO) was added to each well: 200 uM xylenol orange, 300 uM ferrous ammonium sulfate prepared freshly in 50 mM sulfuric acid. 8, 9; Two absorbance readouts were obtained at 405 nm and at 573 nm using a ViewLux high-throughput CCD plate imager (Perkin-Elmer). The 573 to 405 (Read 2 / Read 1) absorbance ratio was used to compute reaction progress.
Background: Quantitative high-throughput screening tests each substance at several concentrations.
In the case of `O=C(COc1ccccc1)OC1CN2CCC1CC2` (stereo not given), the Potency entry was “inactive”.
For `O=C(Nc1ccncc1[N+](=O)[O-])c1ccc([N+](=O)[O-])cc1[N+](=O)[O-]`, the Potency entry was “inactive”.
With `Cc1cccc(C(=O)NC(Sc2ccccc2)C(Cl)(Cl)Cl)c1` (stereo not given), the Potency entry is “inactive”.
For the molecule `O=C(O)C(=O)c1ccc(N(CCCl)CCCl)cc1`, the Potency result is “inactive”.
To `COP1(=S)c2c(C)nn(CCC#N)c2N=C(c2ccc(F)cc2)N1C` (stereo not given) belongs “inactive”.
To `COC(=O)C1(C)COP(=O)(N2CCCC2)OC1` (stereo not given) belongs “inactive”; to `CCC(C)N(CC(C)C)C(=S)SC(NC(C)=O)C(Cl)(Cl)Cl` (stereo not given), “inactive”.
For the molecule `O=C(OC1CN2CCC1CC2)c1cccc([N+](=O)[O-])c1` (stereo not given), the Potency entry was “inactive”.
As to `COP(=O)(OC)N1CC1c1ccccc1` (stereo not given), the Potency entry was “inactive”.
On to `CC1CCNP(=O)(N(CCCl)CCCl)O1` (stereo not given), for which the Potency result is “inactive”.
For the molecule `CCOC(=O)Nc1ccc([As](=O)(O)O)c(O)c1`, the Potency result was “inactive”.
On to `O=C(O)C(O)c1ccc(N(CCCl)CCCl)cc1` (stereo not given), for which the Potency result is “inactive”.
Turning to `O=[N+]([O-])c1ccc(Nc2ccc(Oc3ccc([N+](=O)[O-])cc3[N+](=O)[O-])cc2)c([N+](=O)[O-])c1`, the Potency entry was “inactive”.
With `O=P(Nc1ccccn1)(c1cccc2ccccc12)c1cccc2ccccc12`, the Potency entry was “inactive”.
As to `CCOC(=O)Nc1cccc([As](=O)(O)O)c1`, the Potency entry is “inactive”.
To `Cc1ccc2nc3c(c(C)c2c1)CC(C(Cl)Cl)S3` (stereo not given) belongs “inactive”.
In the case of `[N-]=[N+]=NC1CCCCC1NC(=O)c1cc([N+](=O)[O-])cc([N+](=O)[O-])c1` (stereo not given), the Potency result was “inactive”.
To `Cc1ccc(OP(=O)(Nc2ccc([N+](=O)[O-])cn2)Oc2ccc(C)cc2)cc1` belongs “inactive”; to `C[As](=O)(O)c1cccc(C(=O)O)c1`, “inactive”; to `O=[As](O)(c1ccc(O)cc1)c1ccccc1O`, “inactive”.
Consider `COc1cc(C(=O)NCC2(N3CCOCC3)CCCCC2)ccc1OCC(C)C`, for which the Potency result was “inactive”.
With `O=[N+]([O-])c1ccc(-c2cc([N+](=O)[O-])c(O)c([N+](=O)[O-])c2)cc1`, the Potency was active: 39.8 µM.
For `O=C(OC1CN2CCC1CC2)c1cccc2[nH]cnc12` (stereo not given) the value was “inactive”; for `CCN(CC)C(=S)SC(NC=O)C(Cl)(Cl)Cl` (stereo not given), “inactive”.
Take `CC(C)NC(=O)NP(=O)(Oc1ccccc1)Oc1ccccc1`: the Potency result was “inactive”.
To `CC(C)c1ccc(OP(=O)(Nc2ccccn2)Oc2ccccc2F)cc1` (stereo not given) belongs “inactive”; to `COC(=O)C1(C)COP(=O)(N2CCCCCC2)OC1` (stereo not given), “inactive”.
Consider `ClCCSc1nnc(-c2cccnc2)o1`, for which the Potency result was “inactive”.
`COc1ccc2nc(NP(=O)(c3ccccc3)c3ccccc3)sc2c1`: the Potency result is “inactive”.
To `COc1cc(I)ccc1[As](=O)(O)O` belongs “inactive”; to `O=P1(N(CCCl)CCCl)OCCCN1CCCl` (stereo not given), “inactive”; to `O=P1(N(CCCl)CCCl)Nc2ccccc2N1`, “inactive”.
`O=C(OC1CN2CCC1CC2)C12CC3CC(CC(C3)C1)C2` (stereo not given): the Potency entry is “inactive”.
To `Cc1cc(=O)[nH]c(N[N+](=O)[O-])n1` belongs “inactive”; to `Cc1c2c(nc3ccccc13)SC(C(Cl)Cl)C2` (stereo not given), “inactive”; to `COc1ccc(N/C(=N/P(=O)(N2CCOCC2)N2CCOCC2)N2CCOCC2)cc1`, “inactive”.
To `O=[N+]([O-])c1cc(Oc2ccc([N+](=O)[O-])cc2C(F)(F)F)cc([N+](=O)[O-])c1` belongs “inactive”.
For `BrCC1CN=C(Nc2ccccc2)S1` (stereo not given), the Potency is active: 0.891 µM.
For `Fc1ccc(NC2=NCC(CI)S2)c(F)c1` (stereo not given) the value was active: 7.94 µM.
In the case of `Cc1cccc(OCC(=O)OC2CN3CCC2CC3)c1` (stereo not given), the Potency entry is “inactive”.
For the molecule `COc1cc(C(=O)NCC2(N3CCOCC3)CCCCC2)cc(Cl)c1OC(C)C`, the Potency result was “inactive”.
In the case of `O=[As](O)(O)c1cccnc1`, the Potency result is “inactive”.
Take `CS(=O)(=O)c1ccc(Cl)c(NC(=O)COC(=O)C(O)(c2ccccc2)c2ccccc2)c1`: the Potency result was “inactive”.
As to `COc1cc(C2NCCC3(OCCO3)C2(C)C)cc(OC)c1OC` (stereo not given), the Potency result is “inactive”.
Consider `CCOP(=O)(Nc1cccc2ccccc12)OCC`, for which the Potency result is “inactive”.
To `CCCOP(=S)(Nc1nc(N)cc(=O)[nH]1)OCCC` belongs “inactive”.
As for `Nc1cccc2c([As](=O)(O)O)cccc12`, the Potency entry was “inactive”.
`Nc1ccccc1[As](=O)(O)c1ccccc1`: the Potency result was “inactive”.
As for `CCn1c(=O)n([C@@H]2CCN(CC3CCCCCCC3)C[C@@H]2CO)c2ccccc21`, the Potency entry is “inactive”.
In the case of `O=C(O)COc1ccc([As](=O)(O)O)cc1[N+](=O)[O-]`, the Potency result is “inactive”.
`CCOP1(=S)c2c(C)nn(CCC#N)c2N=C(c2ccccc2F)N1C` (stereo not given): the Potency entry was “inactive”.
On to `O=P(Nc1nccs1)(Oc1ccccc1)Oc1ccccc1`, for which the Potency entry is “inactive”.
As for `CN(C)C(=O)c1cc([N+](=O)[O-])cc2c1-c1c(cc([N+](=O)[O-])cc1[N+](=O)[O-])C2=O`, the Potency result is “inactive”.
For the molecule `O=[N+]([O-])c1ccc2c(c1)nnn2O`, the Potency entry was “inactive”.
In the case of `CN(C(=O)Cc1ccc(Cl)c(Cl)c1)[C@H]1CC[C@@]2(CCCO2)C[C@@H]1N1CCCC1`, the Potency result is “inactive”.
With `N#CCCN(C(=O)COC(=O)C(O)(c1ccccc1)c1ccccc1)c1ccc(F)cc1`, the Potency result is “inactive”.
With `CN(C(=O)Cc1ccccc1)[C@@H]1CC[C@]2(CCCO2)C[C@H]1N1CCCC1`, the Potency entry was “inactive”.
For the molecule `CCOP1(=S)c2c(C)nn(CCC#N)c2N=C(c2ccc(F)cc2)N1C` (stereo not given), the Potency entry is “inactive”.
With `NC(=O)Nc1ccc([As](=O)(O)O)cc1`, the Potency entry was “inactive”.
For `O=C(/C=C/c1ccccc1)OC1CN2CCC1CC2` (stereo not given), the Potency entry is “inactive”.
For `CCCC1OP(=O)(Nc2ccccc2)OCC1CC` (stereo not given) the value was “inactive”; for `CN(C)C1(CNC(=O)c2ccc(S(C)(=O)=O)cc2)CCCCC1`, “inactive”; for `Cc1nn(-c2ccccc2)c2c1P(=O)(N1CCOCC1)N(C)C(c1ccccc1)=N2` (stereo not given), “inactive”.
To `CC1CCC(C(C)C)C(OP(=O)(Nc2ccccn2)c2ccccc2)C1` (stereo not given) belongs “inactive”; to `Cc1ccc(C(=O)OC2CN3CCC2CC3)cc1` (stereo not given), “inactive”; to `O=P1(Nc2ccc(Br)cn2)COc2ccccc2OC1`, “inactive”.
Regarding `NS(=O)(=O)c1cccc(NC(=O)COC(=O)C(O)(c2ccccc2)c2ccccc2)c1`, the Potency result was “inactive”.
Consider `O=[As](O)(c1cccs1)c1cccs1`, for which the Potency entry was “inactive”.
`Cc1ccc(OCC(=O)OC2CN3CCC2CC3)cc1` (stereo not given): the Potency entry was “inactive”.
With `Nc1cccc([As](=O)(O)c2ccccc2)c1`, the Potency result is “inactive”.
`O=P1(Nc2ncccn2)COc2ccccc2OC1`: the Potency entry is “inactive”.
With `O=P1(N(CCCl)CCCl)NCCC(C(F)(F)F)O1` (stereo not given), the Potency entry is “inactive”.
In the case of `CC(C)(C)C(=O)NC(Sc1ncccn1)C(Cl)(Cl)Cl` (stereo not given), the Potency entry was “inactive”.
Consider `CN(CCCl)Cc1cc(Cl)c(NC2=NCCN2)c(Cl)c1`, for which the Potency result is “inactive”.
To `CCOP(=O)(Nc1ccc(C)cn1)OCC` belongs “inactive”.
